PMC11531469

Molecular target: Cdc45Δe (Cdc45-7HIS mutant in which all the aspartic and glutamic residues were replaced with asparagine and glutamine) (budding yeast) (UniProt Q08032)
Assay: native gel or EMSA; 0.5 uM Cdc45-7HIS mixed with 0-2 uM H3/H4 tetramer, 15 min at 30 °C; 25 mM HEPES-KOH pH 7.5, 1 mM EDTA, 10% glycerol, 0.05% Tween 20, 300 mM KCl; loss of the free Cdc45 band on 5-20% Tris-Glycine gel, Coomassie; apparent

histone H3/H4 tetramer (from UniProt P61830 1-136; P02309 1-103) (complex)
Kd: 152 nM
